The source of these data is ChEMBL document CHEMBL1134494, “2-Amino-6-arylsulfonylbenzonitriles as non-nucleoside reverse transcriptase inhibitors of HIV-1” (J Med Chem, 2001).

pIC50: −log10 of the molar value.

In the experiment the target is Human immunodeficiency virus type 1 reverse transcriptase (Human immunodeficiency virus 1, UniProt Q72547). Nature of the experiment: Inhibitory activity against HIV-1 reverse transcriptase. The procedure, abridged: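 Recombinant HIV RT at 1 nM was combined with 40 nM Eu-chelate-labeled biotinylated DNA primer/RNA template and 100 nM Cy5-dUTP. Reactions were started with enzyme. Time-resolved FRET was read with excitation at 340 nm and emission at 665 nm over 30 min.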

As a reminder, the pIC50 is −log10 of the IC50, conventionally taken in molar units. The low end stands for a high IC50, the high end for a low IC50. As for `Cc1cc(C)cc(S(=O)(=O)c2cccc(N)c2C#N)c1`, the pIC50 is 8.15.
